Source: patent US10118903B2, “Aminotriazole-based KDM1A inhibitors as epigenetic modulators” (MUSC FOUNDATION FOR RESEARCH DEVELOPMENT, priority 2014, dated 2018)

Target: T1, human recombinant LSD1 (Homo sapiens, UniProt O60341)
T1 construct: purchased Cayman Chemical Item #700120
Test: LSD1 inhibitor screening assay (Cayman Chemical kit, fluorometric)
Assay type: biochemical
Settings: 10 μM compound; Chembridge analogues table

For “Verlindamycin tetrahydrochloride [Compound 2d, reference compound]”, which “% inhibition of recombinant LSD1 at 10 μM” value is on record?
The value was 62.6%.
